# In PubChem BioAssay AID1671194 (National Center for Advancing Translational Sciences (NCATS), 2021):
# The entries are a selection whose mix differs from that of the whole data set. Inconclusive results are not listed. Calls of active or inactive are those of the source. The call rests on the fitted dose curve; in most records, active means well fitted inhibition curve with a large enough effect; inconclusive means small, poorly fitted or top-dose-only effect; inactive means no such curve, though single readings can be large or run the other way.
# Assay: Primary qHTS assay for inhibitors of alpha-synuclein gene (SNCA) expression;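 further: plate controls were DMSO cells for no effect and cell-free wells for full effect; nearly all actives have a fitted effect of over 45% in size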
# Settings: HEK-293 SNCA-luciferase knock-in, luminescence, 24 h
# Excerpt: Assay Submitter (PI): Daniel R. Scoles Ph.D.
# Department of Neurology, University of Utah, Salt Lake City, Utah
# Accumulation of alpha-synuclein is a main underlying pathological feature of Parkinson's disease (PD) and alpha-synucleinopathies, for which lowering expression of the alpha-synuclein gene (SNCA) is a potential therapeutic avenue. Using a cell-based luciferase reporter of SNCA expression we performed a quantitative high throughput screen (qHTS) of 155,885 compounds in dose response. The screening assay was generated using genome editing to insert the luciferase gene downstream and in frame of the SNCA gene in HEK-293 cells (1). A viability counterscreen using GF-AFC was used to eliminate cytotoxic and false positive compounds. After in silico analysis (clustering, removal of frequent hitter nuisance chemotypes), inhibitor compounds from the primary screen were selected for follow up and re-tested at 11-doses in the SNCA-luc cells (luciferase and GF-AFC confirmation), and in CMV-luc expressing cell line to flag general transcriptional repressors.
# Described herein are the results of the primary screen for SNCA inhibitors; decrease in luciferase signal (inhibition of the SNCA gene expression) is the desired output for this assay.
# 1. Dansithong, W., Paul, S., Scoles, D. R., Pulst, S. M., and Huynh, D. P. (2015) Generation of SNCA Cell Models Using Zinc Finger Nuclease (ZFN) Technology for Efficient High-Throughput Drug Screening. PLoS ONE 10, e0136930.
# SEQUENCE No. (e.g., 1, 2, 3, etc.); […] (e.g., Cells, Incubation, Reagent, etc.); VALUE; DESCRIPTION
# 1; Cells; 4 uL; Dispense 1500 HEK-293-SNCA-luc cells/well into Greiner 1536-well white / solid bottom tissue culture treated plate. The plate was covered with metal lids with gas-exchange holes.
# 2; Incubate; 24 hours; Incubate at 37C, 5% CO2, 95% RH.
# 3; Compounds; 23 nL; Compounds and controls were transferred via a Kalypsys Pin Tool (Wako USA) equipped with a 1536-slotted pin array. The plate was covered with metal lids with gas-exchange holes.
# 4; Incubate; 24 hours; Incubate at 37C, 5% CO2, 95% RH.
# 5; Dispense; 1 uL; Dispense Gly-Phe-7-amino-4-trifluoromethylcoumarin (GF-AFC, prepared at 125 uM in PBS) was added. The plate was covered with metal lids with gas-exchange holes.
# 6; Incubate; 30 min; Incubate at 37C, 5% CO2.
# 7; Detector; Fluorescence; Measure fluorescence with ViewLux microplate reader (PerkinElmer) equipped with 405/10 excitation and 540/25 emission filters.
# 8; Dispense; 3 uL; Dispense ONE-Glo ([…]) lucifase detection reagent was added to each well. […]
# 10; Detector; Luminescence; Measure luminescence with ViewLux microplate reader (PerkinElmer) equipped with clear filters. […]
# 10; Signals were analyzed, and dose-response curves were fit using the Hill equation. […]
SMILES,"activity change, negative = inhibition (at 57.2 µM (top of the series))","activity change, negative = inhibition (at 25.6 µM (top of the series))"
CCC(=O)N(c1ccccc1)C1(COC)CCN(CCc2cccs2)CC1,inactive: -25.5%,
CCC(=O)N(c1ccccc1)C1(COC)CCN(CCn2nnn(CC)c2=O)CC1,inactive: 51.8%,
CN(CCCl)CCCl,inactive: -18.6%,inactive: 3.61%
